Values quoted from earlier work, collected in publication PMC3074252 (Journal of medicinal chemistry, 2011).

Conditions: ALS patients; cited from earlier work

In the case of `Nc1nc2ccc(OC(F)(F)F)cc2s1` [riluzole], the “extension of median survival” value is listed as 2–3 months.
